Measurements reported in US12605364B2, “Methods of treating SARS-CoV-2 infections” (priority 2020, dated 2026).
Where two headings read alike, the source gives them in different places.

System: uninfected Vero E6 cells
Settings: for cytotoxic effects: with or without virus

`O=C1CN(/N=C/c2ccc(-c3ccc([N+](=O)[O-])cc3)o2)C(O)=N1` [dantrolene] was tested, and the “cytopathic effects in uninfected controls” value (50 μM dantrolene, Day 2, no virus) was “cytopathic effects”, the “cytopathic effects in uninfected controls” value (50 μM dantrolene, Day 4, no virus) was “cytopathic effects” and the cytotoxic effects (50 μM dantrolene) was “Cytotoxic effects”. The “cytopathic effects in uninfected controls” value (100 μM dantrolene, Day 2, no virus) was “cytopathic effects”, the “cytopathic effects in uninfected controls” value (100 μM dantrolene, Day 4, no virus) was “cytopathic effects” and the cytotoxic effects (100 μM dantrolene) was “Cytotoxic effects”. For the same compound, the “cell viability of uninfected Vero E6 cells” value (lower dilutions (<50 μM dantrolene)) was “good cell viability”.
